Results: the Kinase Knowledgebase extract (Sharma et al. 2016)

The chains behind the UniProt entries cited, without tags or fusion partners.
UniProt P42336, whole entry, looked up: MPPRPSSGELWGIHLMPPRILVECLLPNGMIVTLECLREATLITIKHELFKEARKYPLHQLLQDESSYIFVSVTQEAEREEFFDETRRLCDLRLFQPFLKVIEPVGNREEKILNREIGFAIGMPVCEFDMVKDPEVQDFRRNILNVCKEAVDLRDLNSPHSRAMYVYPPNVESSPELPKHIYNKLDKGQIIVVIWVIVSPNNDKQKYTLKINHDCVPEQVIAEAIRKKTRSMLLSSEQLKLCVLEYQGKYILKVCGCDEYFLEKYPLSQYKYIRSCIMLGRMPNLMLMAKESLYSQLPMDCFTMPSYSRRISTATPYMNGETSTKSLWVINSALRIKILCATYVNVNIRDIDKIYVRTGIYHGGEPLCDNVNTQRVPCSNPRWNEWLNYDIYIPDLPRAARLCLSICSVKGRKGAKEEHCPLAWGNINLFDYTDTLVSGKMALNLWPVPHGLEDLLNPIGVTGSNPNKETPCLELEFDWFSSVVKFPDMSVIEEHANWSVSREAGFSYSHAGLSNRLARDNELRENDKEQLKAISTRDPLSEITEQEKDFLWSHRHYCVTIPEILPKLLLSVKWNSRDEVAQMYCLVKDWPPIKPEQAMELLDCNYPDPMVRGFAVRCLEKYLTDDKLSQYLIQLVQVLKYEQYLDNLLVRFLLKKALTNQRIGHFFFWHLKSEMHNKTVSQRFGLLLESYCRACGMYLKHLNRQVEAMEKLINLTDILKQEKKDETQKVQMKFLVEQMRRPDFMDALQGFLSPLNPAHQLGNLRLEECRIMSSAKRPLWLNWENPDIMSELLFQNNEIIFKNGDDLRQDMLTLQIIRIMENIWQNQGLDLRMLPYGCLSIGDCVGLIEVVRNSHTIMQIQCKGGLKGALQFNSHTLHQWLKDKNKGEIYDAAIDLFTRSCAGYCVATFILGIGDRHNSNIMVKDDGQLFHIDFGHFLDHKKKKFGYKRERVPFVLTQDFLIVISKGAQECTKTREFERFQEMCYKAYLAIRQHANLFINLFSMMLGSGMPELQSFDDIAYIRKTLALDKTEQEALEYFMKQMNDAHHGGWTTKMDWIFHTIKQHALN

Target: PIK3CA (human) (UniProt P42336)
Experiment: Assessment of PIK3CA Kinase Activity

Row | Structure (SMILES) | Ki
1 | COc1ccc(Nc2ncc(-c3ccc(C)nc3)cc2-c2nc(C)nc(N)n2)cn1 | 8 nM
2 | COc1ccc(Nc2ncc(Cc3ccc(S(C)(=O)=O)cc3)cc2-c2nc(C)nc(N)n2)cn1 | 2 nM
